This is an account of results in BindingDB's records for doi:10.1016/S0893-133X(02)00346-9 (Eli Lilly, 2002).

Amino acid sequences for entries named in this document (tags omitted). A change or cut given only in a name is not applied to a line headed by its entry. Chains listed by the source or under a name are the forms on record and can include a tag or linker.
UniProt P02708, as listed by the source: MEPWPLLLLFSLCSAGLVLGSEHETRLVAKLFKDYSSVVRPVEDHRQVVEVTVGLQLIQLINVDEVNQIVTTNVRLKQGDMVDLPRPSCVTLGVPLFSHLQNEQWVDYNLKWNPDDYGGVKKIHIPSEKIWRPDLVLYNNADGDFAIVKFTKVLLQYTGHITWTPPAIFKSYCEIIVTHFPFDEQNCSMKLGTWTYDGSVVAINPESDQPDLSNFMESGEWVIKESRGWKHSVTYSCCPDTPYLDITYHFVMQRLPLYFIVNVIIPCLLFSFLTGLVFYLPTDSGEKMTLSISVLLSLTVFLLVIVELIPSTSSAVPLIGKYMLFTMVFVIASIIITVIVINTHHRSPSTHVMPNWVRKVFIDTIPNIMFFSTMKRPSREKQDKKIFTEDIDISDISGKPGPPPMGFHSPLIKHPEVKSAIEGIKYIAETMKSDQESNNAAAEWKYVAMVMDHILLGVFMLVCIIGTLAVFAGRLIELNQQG
UniProt P28221: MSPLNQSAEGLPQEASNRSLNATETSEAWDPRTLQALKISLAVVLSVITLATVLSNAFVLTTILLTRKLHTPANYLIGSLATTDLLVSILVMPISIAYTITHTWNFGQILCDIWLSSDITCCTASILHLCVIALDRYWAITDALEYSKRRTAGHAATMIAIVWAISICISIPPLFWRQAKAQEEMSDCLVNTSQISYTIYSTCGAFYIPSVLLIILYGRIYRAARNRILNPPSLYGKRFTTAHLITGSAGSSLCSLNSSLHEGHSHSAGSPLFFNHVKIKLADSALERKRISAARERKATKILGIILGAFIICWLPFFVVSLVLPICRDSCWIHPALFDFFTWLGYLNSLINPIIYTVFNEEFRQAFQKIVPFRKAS
UniProt Q02294, whole entry: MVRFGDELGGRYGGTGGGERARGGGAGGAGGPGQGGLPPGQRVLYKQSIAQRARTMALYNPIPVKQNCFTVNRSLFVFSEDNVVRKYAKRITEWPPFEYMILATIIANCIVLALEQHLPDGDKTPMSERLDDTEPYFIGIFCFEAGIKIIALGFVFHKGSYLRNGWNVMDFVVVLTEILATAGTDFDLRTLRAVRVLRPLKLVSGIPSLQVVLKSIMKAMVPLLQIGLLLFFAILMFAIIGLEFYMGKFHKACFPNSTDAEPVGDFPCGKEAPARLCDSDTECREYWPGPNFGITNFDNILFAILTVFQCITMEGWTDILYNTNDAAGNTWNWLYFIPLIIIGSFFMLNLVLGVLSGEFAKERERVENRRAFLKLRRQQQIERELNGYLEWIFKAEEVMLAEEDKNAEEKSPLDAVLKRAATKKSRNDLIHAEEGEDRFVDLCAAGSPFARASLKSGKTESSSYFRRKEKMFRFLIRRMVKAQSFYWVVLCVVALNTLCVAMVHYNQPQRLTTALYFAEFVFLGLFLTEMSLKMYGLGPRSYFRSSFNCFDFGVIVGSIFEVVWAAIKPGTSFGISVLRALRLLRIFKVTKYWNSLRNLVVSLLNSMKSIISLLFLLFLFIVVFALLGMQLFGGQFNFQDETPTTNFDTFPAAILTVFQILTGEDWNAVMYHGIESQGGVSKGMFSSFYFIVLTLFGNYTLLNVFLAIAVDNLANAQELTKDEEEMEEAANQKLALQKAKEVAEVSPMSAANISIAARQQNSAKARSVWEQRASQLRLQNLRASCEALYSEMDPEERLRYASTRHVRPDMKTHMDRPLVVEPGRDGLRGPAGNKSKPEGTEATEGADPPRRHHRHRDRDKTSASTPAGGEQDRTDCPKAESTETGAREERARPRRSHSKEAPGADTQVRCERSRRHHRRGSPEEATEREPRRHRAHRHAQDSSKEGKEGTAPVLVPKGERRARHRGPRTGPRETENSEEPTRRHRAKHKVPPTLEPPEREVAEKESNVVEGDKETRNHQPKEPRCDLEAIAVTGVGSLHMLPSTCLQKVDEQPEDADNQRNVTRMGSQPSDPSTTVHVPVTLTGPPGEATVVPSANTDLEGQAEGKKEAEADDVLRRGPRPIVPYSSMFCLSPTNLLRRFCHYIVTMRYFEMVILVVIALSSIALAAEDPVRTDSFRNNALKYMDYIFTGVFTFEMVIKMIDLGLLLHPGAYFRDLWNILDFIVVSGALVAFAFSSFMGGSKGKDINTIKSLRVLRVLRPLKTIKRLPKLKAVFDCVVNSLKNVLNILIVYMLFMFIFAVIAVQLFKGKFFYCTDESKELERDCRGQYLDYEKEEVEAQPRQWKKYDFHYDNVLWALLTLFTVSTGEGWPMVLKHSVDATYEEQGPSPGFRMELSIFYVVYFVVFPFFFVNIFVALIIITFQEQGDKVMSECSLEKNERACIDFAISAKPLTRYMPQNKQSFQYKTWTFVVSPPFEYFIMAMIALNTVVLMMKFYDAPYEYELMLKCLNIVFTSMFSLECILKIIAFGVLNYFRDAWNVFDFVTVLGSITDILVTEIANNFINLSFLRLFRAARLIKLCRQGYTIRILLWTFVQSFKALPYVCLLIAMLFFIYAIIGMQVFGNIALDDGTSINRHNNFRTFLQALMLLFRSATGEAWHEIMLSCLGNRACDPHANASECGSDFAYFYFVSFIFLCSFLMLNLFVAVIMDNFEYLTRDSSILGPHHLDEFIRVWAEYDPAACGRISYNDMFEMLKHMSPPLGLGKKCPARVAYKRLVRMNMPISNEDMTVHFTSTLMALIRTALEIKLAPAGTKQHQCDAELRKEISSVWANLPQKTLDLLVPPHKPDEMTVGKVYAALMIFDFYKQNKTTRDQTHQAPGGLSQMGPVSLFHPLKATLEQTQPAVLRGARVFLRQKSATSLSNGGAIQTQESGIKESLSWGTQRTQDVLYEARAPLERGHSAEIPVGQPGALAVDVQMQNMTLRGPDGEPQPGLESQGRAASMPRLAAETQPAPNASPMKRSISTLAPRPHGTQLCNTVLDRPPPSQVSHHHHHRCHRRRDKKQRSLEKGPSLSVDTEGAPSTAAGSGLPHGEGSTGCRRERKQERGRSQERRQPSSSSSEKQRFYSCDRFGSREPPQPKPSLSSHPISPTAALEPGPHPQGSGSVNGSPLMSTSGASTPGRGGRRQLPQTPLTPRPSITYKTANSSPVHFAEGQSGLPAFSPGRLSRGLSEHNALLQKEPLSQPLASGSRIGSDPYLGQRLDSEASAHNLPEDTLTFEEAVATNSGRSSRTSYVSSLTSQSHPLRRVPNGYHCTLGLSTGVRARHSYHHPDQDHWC
UniProt Q6MFX8, whole entry: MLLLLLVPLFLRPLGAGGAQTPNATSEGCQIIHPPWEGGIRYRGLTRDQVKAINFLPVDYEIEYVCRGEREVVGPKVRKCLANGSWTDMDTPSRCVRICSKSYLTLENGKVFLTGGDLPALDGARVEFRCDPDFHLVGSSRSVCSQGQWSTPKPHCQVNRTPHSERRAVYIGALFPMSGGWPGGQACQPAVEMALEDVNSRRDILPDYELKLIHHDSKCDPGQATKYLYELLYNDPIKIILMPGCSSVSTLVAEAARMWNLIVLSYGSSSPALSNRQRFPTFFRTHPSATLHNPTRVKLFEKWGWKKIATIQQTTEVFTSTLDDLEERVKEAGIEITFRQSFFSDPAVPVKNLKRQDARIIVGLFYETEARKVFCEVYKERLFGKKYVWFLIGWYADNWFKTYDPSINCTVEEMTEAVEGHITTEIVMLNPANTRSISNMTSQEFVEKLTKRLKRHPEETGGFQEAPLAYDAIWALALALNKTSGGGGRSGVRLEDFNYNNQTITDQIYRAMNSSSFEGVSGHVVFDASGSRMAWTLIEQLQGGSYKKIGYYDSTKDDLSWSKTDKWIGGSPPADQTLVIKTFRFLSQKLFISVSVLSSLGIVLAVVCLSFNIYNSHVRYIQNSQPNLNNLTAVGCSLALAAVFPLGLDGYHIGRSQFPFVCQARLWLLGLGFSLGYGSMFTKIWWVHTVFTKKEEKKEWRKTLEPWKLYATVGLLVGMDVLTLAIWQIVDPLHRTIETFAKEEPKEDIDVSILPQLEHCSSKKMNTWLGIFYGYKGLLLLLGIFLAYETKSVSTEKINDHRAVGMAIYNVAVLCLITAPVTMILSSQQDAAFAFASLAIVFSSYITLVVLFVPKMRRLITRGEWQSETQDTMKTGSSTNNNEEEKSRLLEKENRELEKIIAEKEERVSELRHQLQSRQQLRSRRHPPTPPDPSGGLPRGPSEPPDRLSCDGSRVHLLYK
UniProt P34969, whole entry: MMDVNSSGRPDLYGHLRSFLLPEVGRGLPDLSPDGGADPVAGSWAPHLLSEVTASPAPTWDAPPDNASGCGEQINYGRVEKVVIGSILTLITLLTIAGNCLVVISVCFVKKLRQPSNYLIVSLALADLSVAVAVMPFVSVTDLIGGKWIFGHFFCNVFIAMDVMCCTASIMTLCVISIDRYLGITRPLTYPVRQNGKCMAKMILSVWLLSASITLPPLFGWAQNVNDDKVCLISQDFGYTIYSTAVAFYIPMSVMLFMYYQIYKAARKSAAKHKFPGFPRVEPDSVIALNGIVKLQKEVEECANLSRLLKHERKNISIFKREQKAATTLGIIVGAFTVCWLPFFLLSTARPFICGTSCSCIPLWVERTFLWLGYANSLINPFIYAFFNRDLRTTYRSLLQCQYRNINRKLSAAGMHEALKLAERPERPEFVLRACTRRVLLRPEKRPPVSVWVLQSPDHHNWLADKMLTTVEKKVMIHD
UniProt P29476, whole entry: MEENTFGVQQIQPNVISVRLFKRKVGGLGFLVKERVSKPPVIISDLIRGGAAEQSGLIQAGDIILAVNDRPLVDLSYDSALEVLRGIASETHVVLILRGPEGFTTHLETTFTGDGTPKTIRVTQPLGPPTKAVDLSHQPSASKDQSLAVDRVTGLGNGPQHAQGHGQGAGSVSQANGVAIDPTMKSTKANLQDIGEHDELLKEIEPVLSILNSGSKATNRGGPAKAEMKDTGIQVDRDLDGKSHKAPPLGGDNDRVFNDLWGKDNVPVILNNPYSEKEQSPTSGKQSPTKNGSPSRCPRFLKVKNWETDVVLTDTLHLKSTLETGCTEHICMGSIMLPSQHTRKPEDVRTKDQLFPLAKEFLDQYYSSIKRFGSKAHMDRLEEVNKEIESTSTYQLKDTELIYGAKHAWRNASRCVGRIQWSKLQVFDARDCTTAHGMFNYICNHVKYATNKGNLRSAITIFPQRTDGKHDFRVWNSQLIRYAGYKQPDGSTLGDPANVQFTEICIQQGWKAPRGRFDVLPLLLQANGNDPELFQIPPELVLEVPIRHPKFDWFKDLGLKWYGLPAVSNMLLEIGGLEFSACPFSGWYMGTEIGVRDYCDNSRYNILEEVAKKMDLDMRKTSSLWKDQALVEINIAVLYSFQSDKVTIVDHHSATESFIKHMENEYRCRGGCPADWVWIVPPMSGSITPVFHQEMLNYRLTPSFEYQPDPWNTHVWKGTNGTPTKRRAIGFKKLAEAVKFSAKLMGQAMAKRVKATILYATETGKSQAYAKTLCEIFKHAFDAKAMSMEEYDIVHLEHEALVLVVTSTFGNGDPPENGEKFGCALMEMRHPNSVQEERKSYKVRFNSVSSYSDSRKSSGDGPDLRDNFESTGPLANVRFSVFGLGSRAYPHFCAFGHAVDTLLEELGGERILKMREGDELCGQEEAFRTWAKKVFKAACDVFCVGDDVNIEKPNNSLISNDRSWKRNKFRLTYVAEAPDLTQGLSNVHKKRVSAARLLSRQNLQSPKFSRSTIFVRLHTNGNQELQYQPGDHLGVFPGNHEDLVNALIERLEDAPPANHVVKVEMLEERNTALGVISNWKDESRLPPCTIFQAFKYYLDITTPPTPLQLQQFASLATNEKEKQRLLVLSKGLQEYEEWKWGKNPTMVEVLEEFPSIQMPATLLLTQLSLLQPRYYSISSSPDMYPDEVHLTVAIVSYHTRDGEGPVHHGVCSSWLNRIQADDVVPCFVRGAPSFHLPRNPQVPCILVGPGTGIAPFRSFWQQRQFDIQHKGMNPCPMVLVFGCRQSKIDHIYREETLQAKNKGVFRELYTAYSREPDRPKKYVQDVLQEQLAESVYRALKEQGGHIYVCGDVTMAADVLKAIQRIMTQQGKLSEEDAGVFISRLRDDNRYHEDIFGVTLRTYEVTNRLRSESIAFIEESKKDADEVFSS
UniProt P08913, whole entry: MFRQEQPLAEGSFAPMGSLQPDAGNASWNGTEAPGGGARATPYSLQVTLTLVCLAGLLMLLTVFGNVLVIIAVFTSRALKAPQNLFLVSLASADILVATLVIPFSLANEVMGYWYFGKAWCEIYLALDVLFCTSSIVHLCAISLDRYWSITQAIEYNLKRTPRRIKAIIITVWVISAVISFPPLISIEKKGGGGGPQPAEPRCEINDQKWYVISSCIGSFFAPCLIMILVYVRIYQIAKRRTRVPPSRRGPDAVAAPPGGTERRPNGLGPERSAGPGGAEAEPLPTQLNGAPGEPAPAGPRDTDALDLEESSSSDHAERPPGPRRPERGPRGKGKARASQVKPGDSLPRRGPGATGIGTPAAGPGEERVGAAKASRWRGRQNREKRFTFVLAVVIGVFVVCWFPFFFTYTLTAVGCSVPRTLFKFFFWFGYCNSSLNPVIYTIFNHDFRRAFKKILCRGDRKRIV

Structures can show the parent of a compound that is named as a salt.

Assay [1] concerns the target Sodium-dependent noradrenaline transporter (Homo sapiens, UniProt P23975).
Assay [2] deals with Acetylcholine receptor subunit alpha (Homo sapiens, UniProt P02708).
Assay [3] has as its target 5-hydroxytryptamine receptor 1A (Homo sapiens, UniProt P08908).
The target of assay [4] is 5-hydroxytryptamine receptor 1D (Homo sapiens, UniProt P28221).
Assay [5] addresses Voltage-dependent N-type calcium channel subunit alpha-1B (Rattus norvegicus, UniProt Q02294).
Assay [6] deals with Alpha-2B adrenergic receptor (Mus musculus, UniProt P30545).
The target of a further assay is T1, Adenylate cyclase type 3 (Rattus norvegicus, UniProt P21932).
T1 sequence (P21932 whole entry): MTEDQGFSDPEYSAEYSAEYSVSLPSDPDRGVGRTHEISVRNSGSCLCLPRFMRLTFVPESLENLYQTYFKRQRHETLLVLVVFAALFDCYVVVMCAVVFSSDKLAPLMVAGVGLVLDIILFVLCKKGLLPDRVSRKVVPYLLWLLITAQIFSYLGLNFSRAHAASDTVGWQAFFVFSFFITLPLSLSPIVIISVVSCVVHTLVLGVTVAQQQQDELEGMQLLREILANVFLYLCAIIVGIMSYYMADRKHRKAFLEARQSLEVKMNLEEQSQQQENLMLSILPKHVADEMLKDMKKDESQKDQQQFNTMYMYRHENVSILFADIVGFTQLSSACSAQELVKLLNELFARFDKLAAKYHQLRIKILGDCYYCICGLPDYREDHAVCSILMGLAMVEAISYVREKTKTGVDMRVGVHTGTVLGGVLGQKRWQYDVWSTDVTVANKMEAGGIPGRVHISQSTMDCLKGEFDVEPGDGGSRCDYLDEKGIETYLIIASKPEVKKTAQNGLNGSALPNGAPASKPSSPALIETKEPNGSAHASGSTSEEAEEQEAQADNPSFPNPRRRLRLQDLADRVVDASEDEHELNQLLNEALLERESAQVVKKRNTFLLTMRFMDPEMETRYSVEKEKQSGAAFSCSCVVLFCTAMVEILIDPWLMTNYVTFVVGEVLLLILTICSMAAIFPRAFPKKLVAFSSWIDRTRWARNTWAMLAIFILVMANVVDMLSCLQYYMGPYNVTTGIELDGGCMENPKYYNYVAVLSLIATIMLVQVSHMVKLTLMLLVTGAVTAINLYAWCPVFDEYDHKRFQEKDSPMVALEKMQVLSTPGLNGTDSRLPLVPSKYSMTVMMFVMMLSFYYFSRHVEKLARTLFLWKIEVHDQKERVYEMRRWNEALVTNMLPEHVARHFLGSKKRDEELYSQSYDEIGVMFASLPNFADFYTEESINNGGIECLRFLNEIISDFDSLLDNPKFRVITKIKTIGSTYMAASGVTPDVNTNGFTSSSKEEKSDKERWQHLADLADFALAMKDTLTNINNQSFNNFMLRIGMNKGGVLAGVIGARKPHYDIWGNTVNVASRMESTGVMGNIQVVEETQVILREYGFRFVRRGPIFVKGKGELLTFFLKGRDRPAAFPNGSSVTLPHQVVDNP

Assay [7] deals with Gamma-aminobutyric acid (GABA) B receptor 1 (Rattus norvegicus, UniProt Q6MFX8).
For assay [8], the target named is Melatonin receptor type 1A (Homo sapiens, UniProt P48039).
Assay [9] has as its target 5-hydroxytryptamine receptor 7 (Homo sapiens, UniProt P34969).
Assay [10] concerns the target Nitric oxide synthase, brain (Rattus norvegicus, UniProt P29476).
The next assay deals with T2, Olfactory receptor 145 (Mus musculus, UniProt Q60882).
T2 sequence (Q60882 whole entry): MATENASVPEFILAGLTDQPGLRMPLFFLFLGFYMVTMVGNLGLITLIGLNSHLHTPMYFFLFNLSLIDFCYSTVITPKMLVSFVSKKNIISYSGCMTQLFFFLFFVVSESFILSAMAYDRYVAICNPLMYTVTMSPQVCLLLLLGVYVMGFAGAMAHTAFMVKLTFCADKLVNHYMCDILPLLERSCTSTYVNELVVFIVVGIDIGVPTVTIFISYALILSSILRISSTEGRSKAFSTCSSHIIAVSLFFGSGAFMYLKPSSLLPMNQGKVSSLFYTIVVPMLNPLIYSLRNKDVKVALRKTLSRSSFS

In assay [11] the target is Alpha-2A adrenergic receptor (Homo sapiens, UniProt P08913).
The target in assay [12] is Glutamate receptor ionotropic, kainate 1 (Rattus norvegicus, UniProt P22756).
Assay [13] has as its target Kappa-type opioid receptor (Cavia porcellus, UniProt P41144).

As a reminder, the Ki is the dissociation constant of the complex between target and ligand, obtained from inhibition or displacement.

`CC(NC(C)(C)C)C(=O)c1cccc(Cl)c1` (stereo not given) [BUPROPION HYDROCHLORIDE] gave a Ki in [1] of more than 10000 nM.
For the molecule `CNCCC(Oc1ccccc1C)c1ccccc1` (stereo not given) [Methyl-(3-phenyl-3-o-tolyloxy-propyl)-amine(tomoxetine)], the Ki (in assay [2]; in [3]; in assay [4]; in [5]; in [6]; on Adenylate cyclase type 3) was 1000 nM in each case. For the same molecule, the Ki (in assay [7]; in assay [8]; in assay [9]; in [10]; on Olfactory receptor 145; in [11]) was 1000 nM each time. The Ki in [12] and in assay [13] was 1000 nM each time.
